From ChEMBL document CHEMBL1938276, “Design and synthesis of 2-heterocyclyl-3-arylthio-1H-indoles as potent tubulin polymerization and cell growth inhibitors with improved metabolic stability” (J Med Chem, 2011)

Experiments:
[1] = system: HeLa; assay: Antiproliferative activity against human HeLa cells assessed as growth inhibition after 48 hrs by MTT assay; format: functional, cell-based
[2] = system: PC-3; assay: Antiproliferative activity against human PC3 cells assessed as growth inhibition after 48 hrs by MTT assay; format: functional, cell-based; conditions: PC-3, 48 h

IC50 [1]: 1500 nM
IC50 [2]: 1700 nM
SMILES: COc1cccc2c1C(=O)c1c(O)c3c(c(O)c1C2=O)C[C@@](O)(C(=O)CO)C[C@@H]3O[C@H]1C[C@H](N)[C@H](O)[C@H](C)O1 [DOXORUBICIN]
